Yeast mating assay 1: variants of the scFv Ab-14

Target: peptide PDVDLGDISGINAS, taken from heptad repeat 2 (HR2) of SARS-CoV-2 spike.

Parent scFv Ab-14: VH joined to VL by a 15-residue (Gly4Ser)3 linker. Changes lie in the heavy chain CDRs alone.
VH: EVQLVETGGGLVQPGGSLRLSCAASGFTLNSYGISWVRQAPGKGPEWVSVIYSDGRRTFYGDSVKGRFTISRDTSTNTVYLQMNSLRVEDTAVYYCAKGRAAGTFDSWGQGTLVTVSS
VL: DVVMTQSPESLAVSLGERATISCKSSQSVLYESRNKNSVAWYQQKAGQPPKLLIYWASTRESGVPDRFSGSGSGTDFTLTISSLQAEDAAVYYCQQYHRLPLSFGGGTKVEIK

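Phage display of a naive human antibody library on the peptide gave the parent. AAYL49 was designed without a model: most single CDR substitutions and a random sample of double and triple ones. AlphaSeq pools MATa yeast showing the antibodies with MATalpha yeast showing the peptide. After mating in shaken culture at 30 °C for 16 h, diploids were selected and their barcode pairs sequenced. Each replicate has its own calibration line, from reference interactions of the BCL2 family. The assay was run in three technical replicates.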

Each variant's VH is given in full.
Every variant below is changed at G103 of the VH (sequential numbering).
Kd is apparent (estimated from mating counts) and averaged on the log scale over replicates with a signal. Smaller is tighter.
An entry "nd" has no value in the source: the pair was not observed among the diploids in any replicate. This suggests poor binding but is not conclusive.
Nonspecific signal, from three strains lacking the peptide, appeared in 15% of pairings of library AAYL49, centred on 11 µM (5% of these signals below 680 nM); values are not corrected for it. The control count says in how many pairings with the empty strains this scFv gave a signal.

- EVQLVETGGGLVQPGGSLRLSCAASGFTLNSYGISWVRQAPGKGPEWVSSIYSQGRRTFYGDSVKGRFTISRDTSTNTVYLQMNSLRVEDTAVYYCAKGRAAETFDSWGQGTLVTVSS: 500 µM (1 of 3 replicates; controls 3 of 9)
- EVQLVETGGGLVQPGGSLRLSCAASSFTLNSYGISWVRQAPGKGPEWVSVIYSDGRRTFYGDSFKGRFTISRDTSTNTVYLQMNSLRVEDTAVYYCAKGRAAITFDSWGQGTLVTVSS: nd (0 of 3 replicates; controls 0 of 9)
- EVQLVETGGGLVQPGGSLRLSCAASGFTLNSNGISWVRQAPGKGPEWVSVIYSKGRRTFYGDSVKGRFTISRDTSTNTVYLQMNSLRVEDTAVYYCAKGRAAKTFDSWGQGTLVTVSS: 8.3 µM (2 of 3 replicates; controls 3 of 9)
- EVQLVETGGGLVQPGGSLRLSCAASGFTLNSYGISWVRQAPGKGPEWVSVIWSDGRRTFYGDSVKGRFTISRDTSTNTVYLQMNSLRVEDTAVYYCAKGRNAVTFDSWGQGTLVTVSS: 6.4 µM (1 of 3 replicates; controls 2 of 9)
- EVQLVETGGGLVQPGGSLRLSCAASGFTLNSYLISWVRQAPGKGPEWVSVIYSDGRRTFYGDSVKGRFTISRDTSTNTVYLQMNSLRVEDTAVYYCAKGRAAPTFDSWGQGTLVTVSS: nd (0 of 3 replicates; controls 1 of 9)
- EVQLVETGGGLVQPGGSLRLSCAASGFTLNSYGISWVRQAPGKGPEWVSVIYSDGRRTFMGDSVKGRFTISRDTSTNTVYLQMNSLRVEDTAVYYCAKGRAACYFDSWGQGTLVTVSS: 350 nM (3 of 3 replicates; controls 2 of 9)
- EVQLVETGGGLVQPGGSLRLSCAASGFTLNSYGISWVRQAPGKGPEWVSVIYVDGRRTFDGDSVKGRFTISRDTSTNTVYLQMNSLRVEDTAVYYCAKGRAAFTFDSWGQGTLVTVSS: 400 µM (2 of 3 replicates; controls 3 of 9)
- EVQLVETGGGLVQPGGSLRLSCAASGFTLNSYGISWVRQAPGKGPEWVSVIYSWGRRTFYGDSVQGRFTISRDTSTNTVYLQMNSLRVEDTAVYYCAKGRAAWTFDSWGQGTLVTVSS: 8.8 µM (2 of 3 replicates; controls 1 of 9)
- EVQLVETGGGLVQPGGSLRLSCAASGFTLNSYGISWVRQAPGKGPEWVSVIYSDGRRTFYGDSSKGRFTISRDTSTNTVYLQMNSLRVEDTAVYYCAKGRAAETFDSWGQGTLVTVSS: nd (0 of 3 replicates; controls 0 of 9)
- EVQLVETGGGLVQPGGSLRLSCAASGFTLNSYGISWVRQAPGKGPEWVSVIYSDGRRTFYGDSVKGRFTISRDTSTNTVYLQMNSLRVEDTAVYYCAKGRAWFTFDQWGQGTLVTVSS: nd (0 of 3 replicates; controls 3 of 9)
- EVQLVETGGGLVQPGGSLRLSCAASGFTLNSYAISWVRQAPGKGPEWVSVIYSDGRRTFYGDMVKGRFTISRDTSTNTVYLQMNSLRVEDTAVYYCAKGRAASTFDSWGQGTLVTVSS: 11 µM (1 of 3 replicates; controls 1 of 9)
- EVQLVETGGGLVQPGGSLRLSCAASGFTLNSYGISWVRQAPGKGPEWVSVIYSDSRRTFYGDSVKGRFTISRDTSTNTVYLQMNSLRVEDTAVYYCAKGRAKRTFDSWGQGTLVTVSS: nd (0 of 3 replicates; controls 0 of 9)
- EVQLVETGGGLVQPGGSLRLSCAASGFTLNSYGISWVRQAPGKGPEWVSVIYSDLRRTFYGDSVKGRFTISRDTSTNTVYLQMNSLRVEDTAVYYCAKGREAFTFDSWGQGTLVTVSS: 25 µM (1 of 3 replicates; controls 0 of 9)
- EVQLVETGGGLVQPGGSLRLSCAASGFTLNSYGISWVRQAPGKGPEWVSRIYSDGRRTFYGDAVKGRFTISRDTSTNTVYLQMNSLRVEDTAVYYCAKGRAASTFDSWGQGTLVTVSS: nd (0 of 3 replicates; controls 0 of 9)
- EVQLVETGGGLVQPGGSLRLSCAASGFTLNRYGISWVRQAPGKGPEWVSVIYSDGRRTFYGDSVKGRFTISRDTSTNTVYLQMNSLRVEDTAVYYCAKGRAAWTFDSWGQGTLVTVSS: nd (0 of 3 replicates; controls 0 of 9)
- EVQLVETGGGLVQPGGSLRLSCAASGFTLNSAGISWVRQAPGKGPEWVSVIYSDGRRTFYGDSVKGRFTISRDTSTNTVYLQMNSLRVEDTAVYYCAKGRAAHGFDSWGQGTLVTVSS: 330 nM (3 of 3 replicates; controls 3 of 9)
- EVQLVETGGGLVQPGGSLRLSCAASGFTLNSYGISWVRQAPGKGPEWVSVYYSDGRRTFSGDSVKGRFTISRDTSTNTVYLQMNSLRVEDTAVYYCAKGRAADTFDSWGQGTLVTVSS: 540 nM (1 of 3 replicates; controls 0 of 9)
- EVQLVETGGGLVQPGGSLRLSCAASGFTLNSYGISWVRQAPGKGPEWVSVIYSDGRRTFYGDSVKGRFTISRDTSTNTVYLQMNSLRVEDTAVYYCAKGTAACTFDSWGQGTLVTVSS: 220 µM (3 of 3 replicates; controls 5 of 9)
- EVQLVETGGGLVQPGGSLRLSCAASGFTLNSYGISWVRQAPGKGPEWVSVIYSDGRRTFYGDSVVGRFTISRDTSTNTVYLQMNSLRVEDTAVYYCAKGRAARCFDSWGQGTLVTVSS: nd (0 of 3 replicates; controls 0 of 9)

Picked from the list: the 3 lowest averages where every replicate gave a value.

- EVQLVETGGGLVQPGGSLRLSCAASGFTLNSAGISWVRQAPGKGPEWVSVIYSDGRRTFYGDSVKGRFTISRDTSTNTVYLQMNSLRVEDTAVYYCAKGRAAHGFDSWGQGTLVTVSS: 330 nM (3 of 3 replicates; controls 3 of 9)
- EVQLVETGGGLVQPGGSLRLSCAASGFTLNSYGISWVRQAPGKGPEWVSVIYSDGRRTFMGDSVKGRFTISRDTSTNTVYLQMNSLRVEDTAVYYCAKGRAACYFDSWGQGTLVTVSS: 350 nM (3 of 3 replicates; controls 2 of 9)
- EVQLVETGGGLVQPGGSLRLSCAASGFTLNSYGISWVRQAPGKGPEWVSVIYSDGRRTFYGDSVKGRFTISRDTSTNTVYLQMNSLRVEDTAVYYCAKGTAACTFDSWGQGTLVTVSS: 220 µM (3 of 3 replicates; controls 5 of 9)

Values reported by Engelhart et al. 2022, doi:10.1038/s41597-022-01779-4 (FLAb copy).